{"source": "patent US20170253656A1", "binders": {"B1": {"name": "1445-A03 paired with trastuzumab light chain (Fab)", "VH": "EVQLVESGGGLVQPGGSLRLSCAASGFNISGYYIHWVRQAPGKGLEWVAEISPTGGYTYYADSVKGRFTISADTSKNTAYLQMNSLRAEDTAVYYCAREHGLVYGQPMDYWGQGTLVTVSS", "light": "DIQMTQSPSSLSASVGDRVTITCRASQDVNTAVAWYQQKPGKAPKLLIYSASFLYSGVPSRFSGSRSGTDFTLTISSLQPEDFATYYCQQHYTTPPTFGQGTKVEIK"}, "B2": {"name": "1198-D04 paired with trastuzumab LC (Fab)", "VH": "EVQLVESGGGLVQPGGSLRLSCAASGFNINNYDIHWVRQAPGKGLEWVANIDPYNGTTYYADSVKGRFTISADTSKNTAYLQMNSLRAEDTAVYYCARVPWGFWAPFDYWGQGTLVTVSS", "light": "B1 light"}, "B3": {"name": "1445-B09 paired with trastuzumab light chain (Fab)", "VH": "EVQLVESGGGLVQPGGSLRLSCAASGFNITGTGIHWVRQAPGKGLEWVGIITPYNGTTNYADSVKGRFTISADTSKNTAYLQMNSLRAEDTAVYYCARGGYGYYYPPFDYWGQGTLVTVSS", "light": "B1 light"}, "B4": {"name": "1198-A01 paired with trastuzumab LC (Fab)", "VH": "EVQLVESGGGLVQPGGSLRLSCAASGFTFSDYDMSWVRQAPGKGLEWVGFIAQDGSYKYYVDSVKGRFTISRDNAKNSLYLQMNSLRAEDTAVYYCARSKLFRAGQFDYWGQGTLVTVSS", "light": "B1 light"}}}
{"target": "CD74 on CD74 positive SU-DHL-6 cells, P04233", "assay": "cell-based or functional assay", "units": {"2nd ADC Cell Killing IC50": "nM"}}
{"binder": "B1", "2nd ADC Cell Killing IC50": 0.7}
{"binder": "B2", "2nd ADC Cell Killing IC50": 187}
{"binder": "B3", "2nd ADC Cell Killing IC50": 0.45}
{"binder": "B4", "2nd ADC Cell Killing IC50": 280}
